The values that follow come from PubChem BioAssay AID504891 (National Center for Advancing Translational Sciences (NCATS), 2011).

Sequences of proteins named here, by UniProt entry; tags and fusion partners are left off.
UniProt Q13526, whole entry: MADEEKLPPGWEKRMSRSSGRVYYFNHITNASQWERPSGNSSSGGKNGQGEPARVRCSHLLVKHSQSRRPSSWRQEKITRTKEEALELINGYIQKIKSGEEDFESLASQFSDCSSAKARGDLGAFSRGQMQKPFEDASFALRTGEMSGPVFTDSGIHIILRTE

This is a selection; strong and weak results do not stand in their true shares. Inconclusive results are not listed. Activity calls are given as the source filed them. Calls come from the whole dose curve; as a rule, active = well fitted inhibition curve with a large enough effect in the polarisation, with a control signal flat (not every such curve was filed as active); inconclusive = small, poorly fitted or top-dose-only effect, or effect the other way, or a change in a side signal; inactive = no such curve, though single readings can be large or run the other way; the % refers to the polarisation.
% is set by controls: 0 for no effect and ±100 for the full control effect.

This assay concerns the target Peptidyl-prolyl cis-trans isomerase NIMA-interacting 1 (Homo sapiens) (UniProt Q13526). The experiment in a line: qHTS Assay to Find Inhibitors of Pin1. The settings on record: Pin1 FP peptide displacement, HiFluor488, 10 min; at 115 µM (top of the series).
As for `CC(=O)c1ccc(N2CC2c2ccncc2)cc1` (stereo unspecified), the activity, negative = inhibition is inactive: -1.6%.
